# Data taken from PubChem BioAssay AID1671190 (National Center for Advancing Translational Sciences (NCATS), 2021).
# Sequences of proteins named here, by UniProt entry; tags and fusion partners are left off.
# UniProt P18054, whole entry: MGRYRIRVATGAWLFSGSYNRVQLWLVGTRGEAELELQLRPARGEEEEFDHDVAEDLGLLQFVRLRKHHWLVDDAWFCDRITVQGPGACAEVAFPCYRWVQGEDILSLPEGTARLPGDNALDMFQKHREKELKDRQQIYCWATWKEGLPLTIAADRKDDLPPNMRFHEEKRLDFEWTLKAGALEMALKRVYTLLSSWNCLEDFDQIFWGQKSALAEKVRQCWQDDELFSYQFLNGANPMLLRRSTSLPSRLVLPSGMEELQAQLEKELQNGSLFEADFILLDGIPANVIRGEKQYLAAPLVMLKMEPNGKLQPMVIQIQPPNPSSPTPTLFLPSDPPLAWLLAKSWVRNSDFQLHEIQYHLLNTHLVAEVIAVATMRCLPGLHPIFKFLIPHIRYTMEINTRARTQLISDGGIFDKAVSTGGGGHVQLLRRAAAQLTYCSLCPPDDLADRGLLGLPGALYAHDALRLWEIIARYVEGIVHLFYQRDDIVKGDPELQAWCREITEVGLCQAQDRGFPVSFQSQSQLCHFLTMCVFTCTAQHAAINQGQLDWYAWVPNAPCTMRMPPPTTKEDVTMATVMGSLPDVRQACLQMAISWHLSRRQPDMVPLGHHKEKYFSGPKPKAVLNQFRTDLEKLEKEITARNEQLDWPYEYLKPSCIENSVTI
# The list shows a part of the results, in another mix than the full data. Inconclusive results are not listed. Active and inactive are the calls of the source. Calls follow the shape of the dose curve; as a rule, active = well fitted inhibition curve with a large enough effect; inconclusive = small, poorly fitted or top-dose-only effect, or another doubt; inactive = no such curve, though single readings can be large or run the other way.
# Target: Polyunsaturated fatty acid lipoxygenase ALOX12 (Homo sapiens) (UniProt P18054)
# Assay: Primary qHTS assay for inhibitors of human arachidonate 12S-lipoxygenase (ALOX12): Round 2
# Conditions: purified 12hLO, xylenol orange hydroperoxide absorbance; at 108 µM (top of the series)
# Excerpt: Assay Provider: Theodore R. Holman Ph.D. University of California, Santa Cruz, California Human lipoxygenase 12hLO is a member of the closely related lipoxygenase family of enzymes which catalyze the site-specific oxidation of arachidonic acid to various hormone precursor molecules and as such is a candidate for drug development in a variety of disease areas, such as cancer and inflammation. Inhibition of 12hLO activity was screened by utilizing arachidonic acid as a substrate. The extent of hydroperoxide product formation was measured by a secondary chromogenic reaction in which xylenol orange (XO, Sigma-Aldrich, cat. number 39,818-7) reacts with the ferric ions produced from the reaction between the hydroperoxide and ferrous ions. The Fe (III)-XO complex is characterized with red-shifted absorbance at 560 nm. […]
# PROTOCOL TABLE SEQUENCE No. (e.g., 1, 2, 3, etc.); […] […] 7; Incubation; 30 min; room temperature 8; Detector; absorbance; Read 1 at 405 nm absorbance using ViewLux (Perkin-Elmer) CCD imager. 9; Detector; absorbance; Read 2 at 573 nm absorbance using ViewLux (Perkin-Elmer) CCD imager. […] 8, 9; Two absorbance readouts were obtained at 405 nm and at 573 nm using a ViewLux high-throughput CCD plate imager (Perkin-Elmer). The 573 to 405 (Read 2 / Read 1) absorbance ratio was used to compute reaction progress.
# % is scaled to controls: 0 for no effect and ±100 for the full control effect.
row,SMILES,"activity change, negative = inhibition"
1,O=[As](O)(c1cccc(O)c1)c1cccc(O)c1,inactive: 4.86%
